Results as given in article PMC4601051, “Discovery of Indoline-2-carboxamide Derivatives as a New Class of Brain-Penetrant Inhibitors of Trypanosoma brucei” (Journal of Medicinal Chemistry, 2015).

tested on: MRC-5 cells; details: Table 7

SMILES	selectivity vs MRC-5
CNC(=O)C1Cc2ccccc2N1C(=O)COc1ccc(Cl)cc1 (centres unmarked) [Compound 1, 1-(2-(4-chlorophenoxy)acetyl)-N-methylindoline-2-carboxamide]	>1800
CNC(=O)[C@H]1Cc2ccccc2N1C(=O)COc1ccc(Cl)cc1 [Compound 27, (R)-1-(2-(4-Chlorophenoxy)acetyl)-N-methylindoline-2-carboxamide]	>1800
CNC(=O)C1Cc2ccccc2N1C(=O)COc1ccc(F)cc1 (centres unmarked) [Compound 35, 1-(2-(4-fluorophenoxy)acetyl)-N-methylindoline-2-carboxamide]	>2700
CNC(=O)[C@H]1Cc2ccccc2N1C(=O)Cc1ccc(F)cc1 [Compound 47, (R)-1-(2-(4-Fluorophenyl)acetyl)-N-methylindoline-2-carboxamide]	>860
CNC(=O)C1Cc2cc(F)ccc2N1C(=O)COc1ccc(F)cc1 (centres unmarked) [Compound 55, 5-fluoro-1-(2-(4-fluorophenoxy)acetyl)-N-methylindoline-2-carboxamide]	>720
